The assay concerns the target 5-hydroxytryptamine receptor 2A (Rattus norvegicus, UniProt P14842). The assay is described as follows: biochemical.

The chains behind the UniProt entries cited, without tags or fusion partners.
UniProt P14842, whole entry: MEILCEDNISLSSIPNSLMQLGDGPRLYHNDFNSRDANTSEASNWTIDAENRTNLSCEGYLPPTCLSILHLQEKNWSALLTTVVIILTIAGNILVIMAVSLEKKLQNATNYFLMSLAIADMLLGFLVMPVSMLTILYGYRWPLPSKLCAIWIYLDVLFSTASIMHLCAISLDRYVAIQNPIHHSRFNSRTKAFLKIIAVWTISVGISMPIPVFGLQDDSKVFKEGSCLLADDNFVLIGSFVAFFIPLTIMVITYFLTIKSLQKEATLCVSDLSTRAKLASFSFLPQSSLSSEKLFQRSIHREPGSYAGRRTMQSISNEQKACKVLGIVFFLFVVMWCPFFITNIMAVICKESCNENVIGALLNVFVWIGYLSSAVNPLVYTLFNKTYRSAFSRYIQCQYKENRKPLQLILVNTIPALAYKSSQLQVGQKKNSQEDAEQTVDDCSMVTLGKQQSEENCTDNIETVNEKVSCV

On to `CN1CCN(C2=Nc3ccccc3Oc3ccc(Cl)cc32)CC1` [LOXAPINE], for which the IC50 was found to be 6 nM.

The values are drawn from ChEMBL document CHEMBL1132638, “New (sulfonyloxy)piperazinyldibenzazepines as potential atypical antipsychotics: chemistry and pharmacological evaluation” (J Med Chem, 1999).
